These results are taken from patent US9409924B2, “Selective glycosidase inhibitors and uses thereof” (Alectos Therapeutics Inc., priority 2011, dated 2016).

The chains behind the UniProt entries cited, without tags or fusion partners. Where a name states a change or a piece, a line headed by the entry shows the natural chain unless it says otherwise.
UniProt O60502: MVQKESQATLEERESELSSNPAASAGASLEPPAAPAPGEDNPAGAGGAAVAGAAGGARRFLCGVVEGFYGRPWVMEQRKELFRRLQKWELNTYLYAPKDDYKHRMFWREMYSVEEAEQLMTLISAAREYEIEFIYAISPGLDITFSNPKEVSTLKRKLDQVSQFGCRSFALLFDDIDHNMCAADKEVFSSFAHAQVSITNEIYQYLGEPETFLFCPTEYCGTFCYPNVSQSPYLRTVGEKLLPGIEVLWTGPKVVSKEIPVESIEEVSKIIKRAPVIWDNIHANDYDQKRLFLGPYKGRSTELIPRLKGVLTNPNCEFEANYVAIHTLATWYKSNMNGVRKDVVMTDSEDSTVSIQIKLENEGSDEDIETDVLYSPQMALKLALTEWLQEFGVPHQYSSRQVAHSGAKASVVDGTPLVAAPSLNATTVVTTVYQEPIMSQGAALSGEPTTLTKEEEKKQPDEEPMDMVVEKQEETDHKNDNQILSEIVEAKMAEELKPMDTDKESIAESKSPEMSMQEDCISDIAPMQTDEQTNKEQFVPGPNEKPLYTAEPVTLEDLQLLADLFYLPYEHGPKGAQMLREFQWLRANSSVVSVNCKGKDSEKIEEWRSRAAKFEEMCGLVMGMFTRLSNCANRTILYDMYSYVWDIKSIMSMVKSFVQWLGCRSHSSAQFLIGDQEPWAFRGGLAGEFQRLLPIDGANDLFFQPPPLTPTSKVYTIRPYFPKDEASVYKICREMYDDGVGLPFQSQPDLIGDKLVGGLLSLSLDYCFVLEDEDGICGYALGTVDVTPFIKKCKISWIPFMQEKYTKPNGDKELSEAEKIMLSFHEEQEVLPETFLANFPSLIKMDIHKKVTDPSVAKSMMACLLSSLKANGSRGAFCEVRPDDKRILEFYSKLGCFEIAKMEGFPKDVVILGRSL
UniProt Q8VIJ5: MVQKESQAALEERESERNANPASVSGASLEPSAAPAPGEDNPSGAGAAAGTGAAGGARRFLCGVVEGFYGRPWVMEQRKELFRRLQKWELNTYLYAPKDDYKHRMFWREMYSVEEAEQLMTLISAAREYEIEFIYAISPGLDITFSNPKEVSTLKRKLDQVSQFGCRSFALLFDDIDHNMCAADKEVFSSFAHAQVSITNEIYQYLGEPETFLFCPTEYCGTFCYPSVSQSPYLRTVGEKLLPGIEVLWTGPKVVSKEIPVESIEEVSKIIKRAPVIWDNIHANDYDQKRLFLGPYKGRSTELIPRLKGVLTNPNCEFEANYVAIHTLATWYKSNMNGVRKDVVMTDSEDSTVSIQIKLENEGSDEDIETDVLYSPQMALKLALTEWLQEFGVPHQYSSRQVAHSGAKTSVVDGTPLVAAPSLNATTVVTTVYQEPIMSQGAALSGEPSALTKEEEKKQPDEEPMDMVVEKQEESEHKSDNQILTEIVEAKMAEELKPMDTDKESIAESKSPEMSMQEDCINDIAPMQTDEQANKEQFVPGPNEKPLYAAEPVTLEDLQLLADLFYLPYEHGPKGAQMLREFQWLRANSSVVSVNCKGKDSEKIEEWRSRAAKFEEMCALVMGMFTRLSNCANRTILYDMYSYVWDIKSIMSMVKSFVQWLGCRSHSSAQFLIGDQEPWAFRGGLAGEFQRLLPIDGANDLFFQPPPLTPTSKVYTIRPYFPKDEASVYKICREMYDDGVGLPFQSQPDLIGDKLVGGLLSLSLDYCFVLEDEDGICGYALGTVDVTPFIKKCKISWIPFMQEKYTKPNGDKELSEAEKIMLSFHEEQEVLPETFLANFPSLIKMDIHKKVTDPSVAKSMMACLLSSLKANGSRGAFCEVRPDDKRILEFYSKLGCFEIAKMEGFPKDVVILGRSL

Test [1] concerns the target human O-GlcNAcase (Homo sapiens (Human), UniProt O60502). Description: Assay for determination of KI values for inhibition of O-GlcNAcase activity (fluorescence-based hOGA). It is filed as biochemical. Conditions: purified human O-GlcNAcase, 4-Methylumbelliferyl N-acetyl-β-D-glucosaminide substrate, pH 7.0, Cheng-Prusoff. As for the experimental part:
Assay for Determination of KI Values for Inhibition of O-GlcNAcase Activity
Experimental Procedure for Kinetic Analyses:
Enzymatic reactions were carried out in a reaction containing 50 mM NaH2PO4, 100 mM NaCl and 0.1% BSA (pH 7.0) using 2 mM 4-Methylumbelliferyl N-acetyl-β-D-glucosaminide dihydrate (Sigma M2133) dissolved in ddH2O, as a substrate. The amount of purified human O-GlcNAcase enzyme used in the reaction was 0.7 nM. Test compound of varying concentrations was added to the enzyme prior to initiation of the reaction. The reaction was performed at room temperature in a 96-well plate and was initiated with the addition of substrate. […] The slope of product production was determined for each concentration of compound tested and plotted, using standard curve fitting algorithms for sigmoidal dose response curves. The values for a four parameter logistic curve fit of the data were determined.

For test [2], the target named is O-GlcNAcase (Rattus norvegicus (Rat), UniProt Q8VIJ5). Description: Cell-based ELISA of O-GlcNAcylated protein (RL-2 antibody) for cellular activity of O-GlcNAcase inhibitors. Conditions: rat PC-12 cells, 24 h treatment, O-GlcNAcylated protein detected with RL-2 antibody. The source says:
Assay for Determination of Cellular Activity for Compounds that Inhibit O-GlcNAcase Activity
Inhibition of O-GlcNAcase, which removes O-GlcNAc from cellular proteins, results in an increase in the level of O-GlcNAcylated protein in cells. An increase in O-GlcNAcylated protein can be measured by an antibody, such as RL-2, that binds to O-GlcNAcylated protein. The amount of O-GlcNAcylated protein:RL2 antibody interaction can be measured by enzyme linked immunosorbant assay (ELISA) procedures.
A variety of tissue culture cell lines, expressing endogenous levels of O-GlcNAcase, can be utilized; examples include rat PC-12, and human U-87, or SK—N—SH cells. […] Compounds to be tested were dissolved in DMSO, either 2 or 10 mM stock solution, and then diluted with DMSO and water in a two-step process using a Tecan workstation. […] If desired, the total protein concentration of samples was determined using 20 μL of the sample using the BCA method. […]
The amount of O-GlcNAcylated protein, as detected by the ELISA assay, was plotted for each concentration of test compound using standard curve fitting algorithms for sigmoidal dose response curves. The values for a four parameter logistic curve fit of the data were determined, with the inflection point of the curve being the potency value for the test compound.

The Ki is a dissociation constant, usually derived from enzyme kinetics or from competition with a known ligand. In general, EC50 refers to the midpoint of the concentration-response curve. A low value points to an effect from little substance. As to `CNC1=N[C@@H]2[C@@H](F)[C@H](O)[C@@H]([C@H](C)O)O[C@@H]2S1` [Example 1, (3aR,5R,6R,7R,7aR)-7-fluoro-5-((S)-1-hydroxyethyl)-2-(methylamino)-5,6,7,7a-tetrahydro-3aH-pyrano[3,2-d]thiazol-6-ol], the Ki in test [1] is 1.1 nM. The compound also came in with an EC50 in test [2] of 13 nM. In turn, `CNC1=N[C@@H]2[C@H](F)[C@H](O)[C@@H]([C@H](C)O)O[C@@H]2S1` [Example 34, (3aR,5R,6R,7S,7aR)-7-fluoro-5-((S)-1-hydroxyethyl)-2-(methylamino)-5,6,7,7a-tetrahydro-3aH-pyrano[3,2-d]thiazol-6-ol] yielded a Ki in test [1] of 0.3 nM. Further, a half-maximal response in test [2] (EC50) required 5.2 nM. In turn, `CNC1=N[C@@H]2[C@@H](F)[C@@H](O)[C@@H]([C@H](C)O)O[C@@H]2S1` [Example 46, (3aR,5R,6S,7R,7aR)-7-fluoro-5-((S)-1-hydroxyethyl)-2-(methylamino)-5,6,7,7a-tetrahydro-3aH-pyrano[3,2-d]thiazol-6-ol] returned a Ki in test [1] of 562 nM.
